Measured values reported in publication PMC3820426.

Tests used:
[1] = tested on: Nc1cncn1[C@@H]1O[C@H](COP(=O)(O)O)[C@@H](O)[C@H]1O; experiment: purified protein; conditions: full reaction, 1 mM ATP, 1 mM NaHCO3, 50 mM Hepes pH 7.8, 37 °C
purified protein = substrate: Nc1cncn1[C@@H]1O[C@H](COP(=O)(O)O)[C@@H](O)[C@H]1O; experiment: purified protein; conditions: full reaction, 1 mM ATP, 1 mM NaHCO3, 50 mM Hepes pH 7.8, 37 °C; remark: listed apart in the source

For “N^5-CAIR synthetase (Aspergillus clavatus NRRL 1; H273Q)”, the Km [1] was 28 ± 4 µM, the kcat [1] was 0.19 ± 0.007 min⁻¹ and the kcat/Km [1] was 117 M⁻¹ s⁻¹.

Work on “N^5-CAIR synthetase (Aspergillus clavatus NRRL 1; R271A)” yielded a Km [1] of 254 ± 53 µM, a kcat [1] of 0.11 ± 0.007 min⁻¹ and a kcat/Km [1] of 8.33 M⁻¹ s⁻¹.

Work on “N^5-CAIR synthetase (Aspergillus clavatus NRRL 1; R271K)” yielded a Km [1] of 608 ± 83 µM, a kcat [1] of 50 ± 2 min⁻¹ and a kcat/Km [1] of 1270 M⁻¹ s⁻¹.

“N^5-CAIR synthetase (Aspergillus clavatus NRRL 1; R271Q)” gave a Km [1] of 87 ± 19 µM, a kcat [1] of 0.4 ± 0.03 min⁻¹ and a kcat/Km [1] of 66.7 M⁻¹ s⁻¹.

“N^5-CAIR synthetase (Aspergillus clavatus NRRL 1; Y152F)” was tested, and the Km [1] was 68 ± 6 µM, the kcat [1] was 1,600 ± 45 min^-1 and the kcat/Km [1] was 400000 M⁻¹ s⁻¹.

B1: N^5-CAIR synthetase (Aspergillus clavatus NRRL 1) (protein)
chain: MWNSRKVGVLGGGQLGRMLVESANRLNIQVNVLDADNSPAKQISAHDGHVTGSFKEREAVRQLAKTCDVVTAEIEHVDTYALEEVASEVKIEPSWQAIRTIQNKFNQKEHLRKYGIPMAEHRELVENTPAELAKVGEQLGYPLMLKSKTMAYDGRGNFRVNSQDDIPEALEALKDRPLYAEKWAYFKMELAVIVVKTKDEVLSYPTVETVQEDSICKLVYAPARNVSDAINQKAQELARKAVAAFDGKGVFGVEMFLLEDDSIMLCEIASRIHNSGHYTIEGCALSQFDAHLRAILDLPIPAQSLEIRQPSIMLNIIGGAAPDTHLQAAECALSIPNASIHLYSKGAAKPGRKMGHITVTAPTMHEAETHIQPLIDVVDRIRA
Work on B1 yielded a Km (purified protein) of 22 ± 4 µM.
